ChEMBL document CHEMBL2150956, “The first activation study of a bacterial carbonic anhydrase (CA). The thermostable α-CA from Sulfurihydrogenibium yellowstonense YO3AOP1 is highly activated by amino acids and amines” (Bioorg Med Chem Lett, 2012)

Tests used:
[1] = tested on: Sulfurihydrogenibium yellowstonense; test: Activity of Sulfurihydrogenibium yellowstonense YO3AOP1 recombinant CA expressed in Escherichia coli BL21(DE3) after 15 mins by phenol red staining based stopped flow CO2 hydration assay
[2] = tested on: Sulfurihydrogenibium yellowstonense; conditions: YO3AOP1, 10 uM
N[C@H](Cc1ccccc1)C(=O)O [3] = conditions: Homo sapiens; 10 uM
N[C@@H](Cc1ccccc1)C(=O)O [4] = conditions: Homo sapiens; 10 uM
N[C@H](Cc1ccccc1)C(=O)O [5] = conditions: Homo sapiens; 10 uM; remark: listed apart in the source
N[C@@H](Cc1ccccc1)C(=O)O [6] = conditions: Homo sapiens; 10 uM; remark: listed apart in the source

Molecule | KA [1] [µM] | kcat [2] | other results
N[C@@H](Cc1ccccc1)C(=O)O | 0.008 | 1.4 ×10⁷ /s | –
Carbonic anhydrase 1 (Homo sapiens), P00915 | – | – | kcat (N[C@H](Cc1ccccc1)C(=O)O [3]): 2.3 ×10⁵ /s; kcat (N[C@@H](Cc1ccccc1)C(=O)O [4]): 19.8 ×10⁵ /s
N[C@H](Cc1ccccc1)C(=O)O | 5.13 | 4.1 ×10⁶ /s | –
Carbonic anhydrase 2 (Homo sapiens) (from UniProt P00918) | – | – | kcat (N[C@H](Cc1ccccc1)C(=O)O [5]): 5.2 ×10⁶ /s; kcat (N[C@@H](Cc1ccccc1)C(=O)O [6]): 5.7 ×10⁶ /s
